## Binding of CDR-mutated scFvs to a peptide of the spike HR2 region

From the AlphaSeq antibody data of Engelhart et al. 2022 (doi:10.1038/s41597-022-01779-4), copy in the FLAb collection.

Target peptide (SARS-CoV-2 spike, HR2 region): PDVDLGDISGINAS

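The parent was found by panning a naive human phage display library on the peptide. Variants in AAYL50 differ from the parent at up to three CDR positions; double and triple changes were sampled at random. The scFvs were displayed on barcoded MATa yeast, the peptide on MATalpha yeast. The frequency of each diploid, read from paired DNA barcodes, reflects how well the two displayed proteins bind. A regression on co-assayed BCL2-family reference pairs converts the normalised counts of each replicate to an apparent Kd. Each pool was mated in three replicate cultures.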

Parent scFv Ab-14: VH joined to VL by a (GGGGS)3 linker. Changes lie in the light chain CDRs alone.
VH: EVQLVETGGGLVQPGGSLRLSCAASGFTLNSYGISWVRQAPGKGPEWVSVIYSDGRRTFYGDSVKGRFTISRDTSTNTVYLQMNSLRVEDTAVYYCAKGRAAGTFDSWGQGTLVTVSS
VL: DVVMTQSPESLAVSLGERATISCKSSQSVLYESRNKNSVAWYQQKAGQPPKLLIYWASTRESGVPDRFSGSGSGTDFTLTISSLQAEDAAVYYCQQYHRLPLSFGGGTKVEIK

Substitutions are numbered in sequence along the VL above, starting at 1 (not Kabat).
All variants listed here change W56 of the VL, counted from its first residue.
The read-out is the apparent dissociation constant on a log10 scale (nM): the lower, the stronger.
Averages over replicates are reported, and they cover detected replicates only.
An entry "nd" has no value in the source: the pair was not observed among the diploids in any replicate. This suggests poor binding but is not conclusive.
In this assay the parent's reference entry averaged 0.65; its copy inside this library read 1.68.

For K24H E32I W56H, the assay gave 1.39 (3 of 3 replicates).
For W56Q T59G H98L, the assay gave 0.78 (3 of 3 replicates).
For L30M W56S S62R, the assay gave 0.08 (3 of 3 replicates).
For S33D W56R S62Y, the assay gave 0.54 (3 of 3 replicates).
For L30M W56T Y97A, the assay gave 0.79 (3 of 3 replicates).
For S38C W56R, the assay gave 0.77 (3 of 3 replicates).
For N35D W56V P101M, the assay gave nd (0 of 3 replicates).
For N35W W56Y Q96M, the assay gave 1.95 (3 of 3 replicates).
For S25W N35P W56T, the assay gave 0.46 (3 of 3 replicates).
For E32G W56C A57V, the assay gave 1.14 (3 of 3 replicates).
For W56P Y97H, the assay gave 4.18 (1 of 3 replicates).

Nonspecific signal, from three strains lacking the peptide, appeared in 18% of pairings of library AAYL50, centred on 4.19 (5% of these signals below 2.99); values are not corrected for it.